Measurements published in patent publication US10494332B2, “Protein tyrosine phosphatases or SHP2 inhibitors and uses thereof” (Indiana University Research and Technology Corporation, priority 2015, dated 2019).

Legend:
[1] = guinea pig, in vivo
panel of PTPs = assay type: biochemical

| Compound | Signs of toxicity [1] | Activity against mPTPB or a panel of human PTPs (panel of PTPs) | Inhibition of other PTPs at (up to) 100 μM (panel of PTPs) |
| --- | --- | --- | --- |
| O=C(O)c1cc2c(C#Cc3cccc(C(F)(F)F)c3)c(-c3ccccc3)oc2cc1O [Compound L01Z08] | no overt signs of toxicity |  |  |
| Cc1c(Br)cc(NC(=O)CS(=O)(=O)O)cc1Br | no overt signs of toxicity | no significant activity |  |
| O=C(CS(=O)(=O)O)Nc1nc2ccc([N+](=O)[O-])cc2s1 [Compound L335N15-07] |  |  | no detectable inhibition |
| O=C(Nc1nc2ccc(O[N+](=O)[O-])cc2s1)C(c1ccccc1)S(=O)(=O)O (stereo not drawn) [Compound L319N15-07] |  |  | no detectable inhibition |
| O=C(CS(=O)(=O)O)Nc1nc2ccccc2s1 [Compound L335N15] |  |  | did not inhibit |
